Reference: patent US20230278998A1, “Compound containing structure of a five-membered heteroaromatic ring, pharmaceutical compositions thereof and applications thereof” (280 Bio, Inc., priority 2022, published 2023)

By UniProt entry, the sequences of proteins in these tests, tags left out. Residues count along the entry.
UniProt Q86W56, 389-976 limits assumed: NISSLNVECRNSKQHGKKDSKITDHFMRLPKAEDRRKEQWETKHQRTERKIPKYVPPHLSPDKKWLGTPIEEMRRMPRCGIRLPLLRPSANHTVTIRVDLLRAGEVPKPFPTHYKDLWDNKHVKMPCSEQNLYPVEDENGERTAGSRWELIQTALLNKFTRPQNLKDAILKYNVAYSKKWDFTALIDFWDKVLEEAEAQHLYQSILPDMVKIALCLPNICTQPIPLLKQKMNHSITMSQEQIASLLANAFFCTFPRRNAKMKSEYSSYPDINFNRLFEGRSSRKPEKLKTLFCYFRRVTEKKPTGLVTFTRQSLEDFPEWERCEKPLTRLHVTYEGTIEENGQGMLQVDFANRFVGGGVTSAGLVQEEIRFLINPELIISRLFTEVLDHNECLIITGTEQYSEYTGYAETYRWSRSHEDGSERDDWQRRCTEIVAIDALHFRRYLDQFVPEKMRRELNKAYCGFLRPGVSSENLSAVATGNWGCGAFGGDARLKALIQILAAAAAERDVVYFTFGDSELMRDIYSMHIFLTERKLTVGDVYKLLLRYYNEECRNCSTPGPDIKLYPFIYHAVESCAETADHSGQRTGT

Molecular target: PARG (389-976) (Homo sapiens (Human), UniProt Q86W56)
Experiment: PARG enzyme inhibition assay (TR-FRET)
Details: read-out: IC50 (PARG enzyme); Table 3, class symbol

Structure (SMILES) | IC50
Cn1nc(-c2nnc(C(F)F)s2)c2cc(S(=O)(=O)NC3(C#N)CC3)cc(CN3CCC(C(C)(C)O)CC3)c21 | < 100 nM
CC(C)C(=O)N1C2CCC1CN(Cc1cc(S(=O)(=O)NC3(C#N)CC3)cc3c(-c4nnc(C(F)F)s4)nn(C)c13)C2 | < 100 nM
CC(C)C(=O)N1C2CCC1CN(c1cc(S(=O)(=O)NC3(C#N)CC3)cc3c(-c4nnc(C(F)F)s4)n(CCO)nc13)C2 | < 100 nM
